We go through one compound from ChEMBL document CHEMBL5385852, “Structural optimization and biological evaluation of 1-adamantylcarbonyl-4-phenylpiperazine derivatives as FXR agonists for NAFLD” (Eur J Med Chem, 2023).

The target in this assay is T1, G-protein coupled bile acid receptor 1 (Homo sapiens) (UniProt Q8TDU6).
T1 sequence (whole entry): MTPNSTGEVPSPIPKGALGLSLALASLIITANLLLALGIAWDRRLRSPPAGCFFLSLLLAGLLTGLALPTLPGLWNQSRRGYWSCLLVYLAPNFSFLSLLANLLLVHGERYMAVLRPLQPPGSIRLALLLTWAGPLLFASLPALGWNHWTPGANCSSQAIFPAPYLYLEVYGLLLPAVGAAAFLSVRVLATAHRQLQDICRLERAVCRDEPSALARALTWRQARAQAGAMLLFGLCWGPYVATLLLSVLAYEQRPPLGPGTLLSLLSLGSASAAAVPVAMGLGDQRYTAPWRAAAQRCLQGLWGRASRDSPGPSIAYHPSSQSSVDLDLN
The assay can be described thus: Agonist activity at TGR5 (unknown origin) by HTRF cAMP dynamic 2 assay. The assay is classed as functional. A general note: In TR-FRET formats the signal depends on donor and acceptor labels being close together.

SMILES strings stand for the structures. Active and inactive are the calls of the source. No cut-off for these calls is given here.

Take `Nc1ccc(Cl)cc1N1CCN(C(=O)C23CC4CC(CC(C4)C2)C3)CC1`: the result was inactive.
